scFv variants of Ab-14 (light chain) against a SARS-CoV-2 spike peptide

Target: peptide PDVDLGDISGINAS, taken from heptad repeat 2 (HR2) of SARS-CoV-2 spike.

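Designed CDR sequences, proposed from the first random library and measured here. Group labels follow the data file (Ctrl: baseline library sampled from a position-specific scoring matrix, with some repeated check sequences; Rand: our label for a block that the file lists under HC and that is probably the random mutants of the ten best first-round binders; En: ensemble of fine-tuned language models; GP: Gaussian process model; HC: hill climbing; Gen: genetic algorithm; Gibbs: Gibbs sampling; a sequence that several methods proposed may carry one label only). The scFvs were displayed on barcoded MATa yeast, the peptide on MATalpha yeast. After mating in shaken culture at 30 °C for 16 h, diploids were selected and their barcode pairs sequenced. Scores were corrected for input abundance and mapped to Kd with protein pairs of known affinity run in the same pool. Each pool was mated in six replicate cultures.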

Parent scFv Ab-14: VH joined to VL by a 15-residue (Gly4Ser)3 linker. Changes lie in the light chain CDRs alone.
VH: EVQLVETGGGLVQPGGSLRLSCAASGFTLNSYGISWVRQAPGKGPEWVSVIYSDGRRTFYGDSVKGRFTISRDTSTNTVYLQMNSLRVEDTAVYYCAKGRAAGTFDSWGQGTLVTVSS
VL: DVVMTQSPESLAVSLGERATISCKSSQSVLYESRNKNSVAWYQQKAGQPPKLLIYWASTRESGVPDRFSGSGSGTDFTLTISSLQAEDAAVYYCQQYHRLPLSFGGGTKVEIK

Each variant is given by its three light chain CDRs, as the data file delimits them; those of the parent are KSSQSVLYESRNKNSVA, WASTRES, QQYHRLPLS.
Values are apparent Kd, the geometric mean of the replicates that gave a signal; lower means stronger binding.
An entry "no signal" has no value in the source: the pair was not observed among the diploids in any replicate. This suggests poor binding but is not conclusive.
The parent sequence was in this pool as ten entries: three were never detected, three once, and four in most replicates, with averages from 2.2 nM to 240 nM.
In the paper, a design with two or fewer of six values counts as a poor binder.
Values of this round are not directly comparable with the first-round values of the same sequences.
A sequence that the file lists under several names has all its replicates pooled.
Empty control strains, which show no peptide, gave a signal in 4% of pairings with all light chain designs; the median was 430 nM and 95% of these signals were weaker than 38 nM. No background was subtracted.

CDR-L1,CDR-L2,CDR-L3,group,apparent Kd,detected
KLSQSELYESRNKNSVA,NASQRLS,QDYHRLPLS,GP_Gen,1.3 nM,6 of 6
KFYQSQLYESRNKNSVA,NASTRES,QQYHRLPLS,GP_Gen,550 pM,6 of 6
KISQSVLYESRNKNSVA,NASTRCS,QQYHRLPLS,GP_Gen,2.8 nM,6 of 6
KFSQSVLYESRNKNSVA,NASQREQ,QQYHRLPLS,GP_Gen,390 pM,6 of 6
KVSQSVPYESRNKNSVA,WVSTRES,QQYHRLPLS,Ctrl,no signal,0 of 6
MFSQGVMVGWLTRNSVA,NSETRES,QQYDRLPLS,En_HC,20 nM,6 of 6
TISQLMNMGTFAINSVA,QAEIRNA,QQYDRLPLA,En_Gen,13 nM,6 of 6
KSSQSLLYLHRNKNSVA,EASTRES,QQYHRHPLS,Ctrl,20 nM,6 of 6
KSSQSSLYESRNKNSVA,WASTRYS,QQYHSLPLS,Ctrl,18 nM,6 of 6
TIGPMLTTESRNKNSVA,GMQTRES,QQYHRLPLS,En_HC,1.1 nM,6 of 6
TISQMTSLFSQSINNVA,EVSMREE,QQYDRLPLT,En_Gen,80 nM,3 of 6
HMSAVTLMGQRHVNSVA,QMTTREN,QQYDRLPLA,En_Gen,2.6 nM,6 of 6
KSSQSVPYEERNKNSVA,WASTRES,QQYHQLPLS,Ctrl,130 nM,3 of 6
KSSQSVLYESRNKNSVA,HASTREH,VQYHRLPLS,Ctrl,no signal,0 of 6
KLDMWEWYGSRNKNSVA,SASTRCS,QQYHRLPLS,GP_Gibbs,910 pM,6 of 6
KSSQHVLYESRNKNSVA,AASTRES,QQYKRLPLS,Ctrl,13 nM,6 of 6
HVESDWLESNAKKKNVA,NGQGRVE,QQYGRLPLQ,En_Gibbs,1.5 nM,6 of 6
KSSQSELYEDRVKNSVA,GASTRES,QQYHRLPLS,GP_HC,950 pM,6 of 6
KISQMYRYEQQNSSAIA,EVSTRLN,QSYHRLPLS,En_HC,120 nM,5 of 6
TISQMSTLFSQTINNVA,EVSTREQ,QQYDRLPLI,En_Gen,7.6 nM,6 of 6
KQSQLKLYESRNKNSVA,DASTRES,QQYHRLPLS,GP_HC,760 pM,6 of 6
KLEYSWLYESRNKNSVA,NASQRES,QQYHRLPLS,GP_Gen,3.2 nM,6 of 6
KMSQSVLYESRNKNNVA,EASTRES,QQYHRLPLS,GP_Gen,670 pM,6 of 6
KLSVMTSYLSVNKNSVA,EMSTREN,QQYDRLPLS,En_HC,80 nM,6 of 6
KLSQSVLGWWRNKNSVA,NASTRES,QQYHRLPLS,GP_Gibbs,1.7 nM,6 of 6
KSSQSVLYESRNKNSVA,HASKRES,QQYHRKPLS,Ctrl,no signal,0 of 6
KLSQSELYMDRNANSVA,NASTRMS,QQYHRLPLS,GP_Gibbs,510 pM,6 of 6
KSSQSEPYESRNKNSVA,EASTRES,QQYHRLPLS,GP_Gen,1.8 nM,6 of 6
RLNDYQYAITGDTYAIA,NARETLM,QQYMRLPLT,En_Gibbs,3.8 nM,6 of 6
KLYQMTGIESHAKNSLA,DANRRAD,QQYHRLPLS,En_HC,700 pM,6 of 6
TLYGLSNSMSINKNNVA,EMSTREP,QQYDRLPLE,En_Gen,57 nM,6 of 6
KISAVMENQLKNRNSVA,ELVTRLN,QQYNRLPLS,En_Gen,11 nM,6 of 6
KLQYLVLYESRMKNSVA,GASTRLQ,QQYHRLPLS,GP_Gibbs,no signal,0 of 6
KMSQSVPYEERNKNSVA,NASKRLS,QQYHRLPLS,GP_Gibbs,2.3 nM,6 of 6
KSSQSVLYESRRKNSVA,WASTRES,QQYHRLPLS,Ctrl,no signal,0 of 6
KLQMSELYESRNKNSVA,NASTRES,QQYHRLPLS,GP_Gen,690 pM,6 of 6
IISGSMLMESKHRNSVA,NAETREY,QHYDRLPLS,En_HC,21 nM,6 of 6
NVGIEDPGQWYMWDSIA,GSSLRAE,QQYWRLPLM,En_Gibbs,13 nM,6 of 6
KMSFSVLYESRNKNSVA,AASTRES,QQYHPLPLS,Ctrl,2.6 nM,6 of 6
KVSMSWLYESRNWNSVA,NASLRES,QQYHRLPLS,GP_Gibbs,2.0 nM,6 of 6
RVTNELGKEMERKQSVA,ETDQRCM,QQYARLPLI,En_Gibbs,3.0 nM,6 of 6
TISMVMNHMTRIDNNVA,NQDMREN,QQYDRLPLS,En_Gen,15 nM,6 of 6
KSSQEVLYESRNKESVA,AASTRES,QQYMRLPLS,Ctrl,580 pM,6 of 6
MVYESMDQAMRTHNSIA,DNQTRED,QQYDRLPLS,En_Gen,410 nM,4 of 6
KISYMGEHFATNHSAIA,QASTREQ,QQYHRLPIS,En_HC,10 nM,6 of 6
KSSQSVLVQSRNKNSVA,DASTRES,QQYHRLPLS,GP_HC,1.3 nM,6 of 6
QLSLMENHMGDRMHNVA,DTNQAKM,QDYFRLPLM,En_Gibbs,2.1 nM,6 of 6
MISQMYNMGQFAINSVA,QASLRNE,QQYDRLPLI,En_Gen,11 nM,6 of 6
KSSQSVLFESRNKNSVA,WASTRES,QQYHRLPLS,Ctrl+Rand,240 nM,6 of 12
HVKEDLNMGLKFQSSVA,SGAHREH,QQYYRLPLG,En_Gibbs,3.4 nM,6 of 6
KSSPSVLYESRNKNSVA,AASTRIS,QQYHRLPLS,Ctrl,670 pM,6 of 6
KLGDSTRFESSNKASIA,DNSTRES,QQYHRLPLS,En_HC,10 nM,6 of 6
KSSESELYEDRNQNSVA,SASQRLS,QQYHRLPLS,GP_Gibbs,1.0 nM,6 of 6
ALSQSMDMTSRNMNSVA,DLTTREN,QQYHRLPLS,En_HC,2.1 nM,6 of 6
KHSQSVLIESRNKNSVA,DASTRES,QQYHRLPLS,GP_HC,490 pM,6 of 6
NLGQKMALITEQRNQIA,DSTVRED,QQYSRLPLT,En_Gibbs,16 nM,6 of 6
KLSQSDLYESRNKNSVA,QASTRES,QDYHRLPLS,GP_Gen,1.0 nM,6 of 6
KLDQSELYESRNKNSVA,NASQRLS,QQYHRLPLS,GP_Gen,5.0 nM,6 of 6
KVSEFMKGLMMRTDSIA,DNNTRDS,QQYDRLPLS,En_Gen,150 nM,4 of 6
MISQLYNMGTFAINSVA,QASVRNE,QQYDRLPLI,En_Gen,36 nM,6 of 6
KLMQSMWYESRNKNSVA,HASEREQ,QQYHRLPLQ,GP_Gibbs,650 pM,6 of 6
KLSMSQLYESRNKNSVA,NASTRES,QQYHRLPLS,GP_Gen,350 pM,6 of 6
KFSQSVLYESENKNSVA,HASTRES,QQYHRLPLS,Ctrl,1.3 nM,6 of 6
KVSQSWLMESRNKNSVA,EASTRFS,QQYHRLPLS,GP_HC,1.4 nM,6 of 6
KSSQSVLDESFNKNSVA,WASTRED,QQYHRLPLS,Ctrl,13 nM,6 of 6

A selection of 8 entries from above:

{"CDR-L1": "NLGQKMALITEQRNQIA", "CDR-L2": "DSTVRED", "CDR-L3": "QQYSRLPLT", "group": "En_Gibbs", "apparent Kd": "16 nM", "detected": "6 of 6"}
{"CDR-L1": "KLGDSTRFESSNKASIA", "CDR-L2": "DNSTRES", "CDR-L3": "QQYHRLPLS", "group": "En_HC", "apparent Kd": "10 nM", "detected": "6 of 6"}
{"CDR-L1": "KSSQSVLYESRNKNSVA", "CDR-L2": "HASTREH", "CDR-L3": "VQYHRLPLS", "group": "Ctrl", "apparent Kd": "no signal", "detected": "0 of 6"}
{"CDR-L1": "KLEYSWLYESRNKNSVA", "CDR-L2": "NASQRES", "CDR-L3": "QQYHRLPLS", "group": "GP_Gen", "apparent Kd": "3.2 nM", "detected": "6 of 6"}
{"CDR-L1": "KSSPSVLYESRNKNSVA", "CDR-L2": "AASTRIS", "CDR-L3": "QQYHRLPLS", "group": "Ctrl", "apparent Kd": "670 pM", "detected": "6 of 6"}
{"CDR-L1": "KSSQSVLDESFNKNSVA", "CDR-L2": "WASTRED", "CDR-L3": "QQYHRLPLS", "group": "Ctrl", "apparent Kd": "13 nM", "detected": "6 of 6"}
{"CDR-L1": "NVGIEDPGQWYMWDSIA", "CDR-L2": "GSSLRAE", "CDR-L3": "QQYWRLPLM", "group": "En_Gibbs", "apparent Kd": "13 nM", "detected": "6 of 6"}
{"CDR-L1": "IISGSMLMESKHRNSVA", "CDR-L2": "NAETREY", "CDR-L3": "QHYDRLPLS", "group": "En_HC", "apparent Kd": "21 nM", "detected": "6 of 6"}

Data: MIT Lincoln Laboratory AlphaSeq set, Li et al. 2023, doi:10.1038/s41467-023-39022-2, as distributed in FLAb.